The values below are quoted from earlier work in publication PMC10451079.

The target of the series is megalin (Homo sapiens) (UniProt P98164).

For orientation: Kd means the concentration at which binding is half-saturated. On to RBP (from UniProt P02753), for which the Kd was 1800 nM.
